Measurements reported in ChEMBL document CHEMBL3399947, “Structure activity relationship of selective GABA uptake inhibitors” (Bioorg Med Chem, 2015).

Target: Sodium- and chloride-dependent GABA transporter 1 (Mus musculus, UniProt P31648)
Assay: Inhibition of mouse mGAT1 expressed in HEK293 cells assessed as inhibition of [3H]GABA uptake after 3 mins incubation by TopCount microplate scintillation counting analysis
Type: cell-based

IC50: > 30 µM
SMILES: COc1ccc(C(OCCN2CCC[C@H](C(=O)O)C2)(c2ccc(OC)cc2)c2ccc(OC)cc2)cc1
